According to patent publication EP2710378B1, “METHOD TO PROGNOSE VIRAL INFECTION BY MEASURING T CELL RESPONSE OR AUTO-ANTIBODIES TO APOPTOTIC EPITOPES” (Università degli Studi di Roma "La Sapienza", priority 2011, dated 2012):
Like-named read-outs stand apart in the source and are kept apart here.

Assays:
A*0202 = A*0202 (Homo sapiens, UniProt P04439, D140Y/D185E/D98H/E176V/E277Q/G131W/G231S/I119L/I121R/I166T/I218V/L180W/L300P/L318F/N151K/N90K/P208A/P217A/Q67R/Q86G/Q94H/R138H/R169H/T345S); test: HLA-A2 binding affinity of synthetic peptides (A*0202)
A*6802 = A*6802 (Homo sapiens, UniProt P04439, A269V/D140Y/D185E/E176V/E277Q/E87N/F33Y/G231S/I121R/I166T/I218V/L180W/L300P/L318F/N151K/P208A/P217A/Q86R/R138H/R169H/S129P/T345S/V36M); test: HLA-A2 binding affinity of synthetic peptides (A*6802); conditions: read-out: Binding capacity (IC50§ nM) A*6802; 50% inhibitory nanomolar concentration
A*0201 = A*0201 (Homo sapiens, UniProt P04439, D140Y/D185E/D98H/E176V/E277Q/G131W/G231S/I119V/I121R/I166T/I218V/L300P/L318F/N151K/N90K/P208A/P217A/Q86G/Q94H/R138H/R169H/T345S); test: HLA-A2 binding affinity of synthetic peptides (A*0201)
A*0203 = A*0203 (Homo sapiens, UniProt P04439, A173T/D140Y/D185E/D98H/E277Q/G131W/G231S/I119V/I121R/I166T/I218V/L180W/L300P/L318F/N151K/N90K/P208A/P217A/Q86G/Q94H/R138H/R169H/T345S); test: HLA-A2 binding affinity of synthetic peptides (A*0203)
A*0206 = A*0206 (Homo sapiens, UniProt P04439, D140Y/D185E/D98H/E176V/E277Q/F33Y/G131W/G231S/I119V/I121R/I166T/I218V/L300P/L318F/N151K/N90K/P208A/P217A/Q86G/Q94H/R138H/R169H/T345S); test: HLA-A2 binding affinity of synthetic peptides (A*0206)

CC[C@H](C)[C@H](NC(=O)[C@H](CCC(N)=O)NC(=O)[C@H](CCC(=O)O)NC(=O)[C@H](CCCCN)NC(=O)[C@H](Cc1ccc(O)cc1)NC(=O)[C@H](CC(C)C)NC(=O)[C@@H](N)CCC(N)=O)C(=O)N[C@@H](C)C(=O)N[C@@H](CCCCN)C(=O)N[C@@H](CC(C)C)C(=O)O [compound 87]
IC50 (A*0202; read-out: Binding capacity (IC50§ nM) A*0202, 50% inhibitory nanomolar concentration): 4.6 nM | IC50 (A*6802): 9150 nM | IC50 (A*0201; read-out: Binding capacity (IC50§ nM) A*0201, 50% inhibitory nanomolar concentration): 78 nM | IC50 (A*0203; read-out: Binding capacity (IC50§ nM) A*0203, 50% inhibitory nanomolar concentration): 16 nM

CC[C@H](C)[C@H](NC(=O)CNC(=O)[C@H](Cc1c[nH]cn1)NC(=O)[C@H](CCC(=O)O)NC(=O)[C@@H](NC(=O)[C@@H]1CCCN1C(=O)[C@H](Cc1ccc(O)cc1)NC(=O)[C@H](CCCCN)NC(=O)[C@H](CC(C)C)NC(=O)[C@@H](N)[C@@H](C)O)[C@@H](C)CC)C(=O)O [compound 6]
IC50 (A*0206; read-out: Binding capacity (IC50§ nM) A*0206, 50% inhibitory nanomolar concentration): 26400 nM

CC[C@H](C)[C@H](NC(=O)CNC(=O)CNC(=O)[C@H](C)NC(=O)[C@@H](NC(=O)[C@@H](N)CO)[C@@H](C)CC)C(=O)N[C@H](C(=O)NCC(=O)N[C@H](C(=O)O)C(C)C)[C@@H](C)CC [compound 14]
IC50 (A*0206): 0.14 nM | IC50 (A*0202): 1 nM | IC50 (A*0201): 0.56 nM | IC50 (A*0203): 1.1 nM
